Inhibition data for 26 compounds are collected here from PubChem BioAssay AID652257 (The Scripps Research Institute Molecular Screening Center, 2013).

Protein sequences, listed by entry. Tags and fused reporters are not part of them.
UniProt Q99873, whole entry: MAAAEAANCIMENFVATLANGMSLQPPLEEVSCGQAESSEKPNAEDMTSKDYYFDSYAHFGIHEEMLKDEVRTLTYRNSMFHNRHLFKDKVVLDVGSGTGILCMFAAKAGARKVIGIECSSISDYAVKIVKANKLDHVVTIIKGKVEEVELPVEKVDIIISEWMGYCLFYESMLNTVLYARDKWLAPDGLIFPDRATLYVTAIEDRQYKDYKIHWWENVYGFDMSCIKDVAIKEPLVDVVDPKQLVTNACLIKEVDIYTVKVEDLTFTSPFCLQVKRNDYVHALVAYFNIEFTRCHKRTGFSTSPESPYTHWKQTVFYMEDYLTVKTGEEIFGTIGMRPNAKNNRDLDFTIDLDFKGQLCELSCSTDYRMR

Structures are written as SMILES. Only a part is listed here, and it is no random draw. Some of these compounds have results that are not shown, active ones among them. The source made the active and inactive calls.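 The calls were made as follows: active = inhibition above about 21% made by adding two undisclosed values (limit read from the data); inactive = the rest.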

The target in the assay is Protein arginine N-methyltransferase 1 (Homo sapiens) (UniProt Q99873). The assay is described as follows: PRMT1 methyltransferase inhibitors, primary screen, biochemical, fluorescence polarization (AID 652257). The following applies: recombinant PRMT1, activity-based probe fluorescence polarization; at 2.79 µM; stronger effect = higher value.
Take `O=C(OC1CN2CCC1CC2)C(CO)(c1ccccc1)c1ccccc1` (stereo unspecified): the inhibition is inactive: 3.96%.
The result for `COc1ccc(Br)c(C(=O)NCC2(N3CCCCC3)CCCCC2)c1` reads inactive: 7.53%.
Regarding `C=C(C)C#CC(O)(C(=O)OC1CCN(C)CC1)c1ccccc1` (stereo unspecified), the inhibition was inactive: 3.98%.
For `CN(C)c1cccc(C(=O)NCC2(N(C)C)CCCCC2)c1`, the inhibition is inactive: -1.9%.
The same measure for `O=C(OCCN1CCCC1)C(O)(c1ccccc1)c1ccccc1`: inactive: 1.57%.
Regarding `CC(C)Oc1ccc(C(=O)NCC2(N(C)C)CCCCC2)cc1`, the inhibition is inactive: 4.21%.
The same measure for `CN(C)C1(CNC(=O)c2ccc(Br)cc2)CCCCC1`: inactive: 1.15%.
The same measure for `COc1cc(C(=O)NCC2(N(C)C)CCCCC2)c([N+](=O)[O-])cc1OC`: inactive: 1.69%.
The same measure for `COc1ccc(Cl)cc1C(=O)NCC1(N(C)C)CCCCC1`: inactive: 14.9%; for `COc1cccc(C(=O)NCC2(N3CCCCC3)CCCCC2)c1`: inactive: 1.54%.
For the compound `O=C(NCC1(N2CCCCC2)CCCCC1)c1cccc(Cl)c1`, the inhibition was inactive: 0.6%.
The same measure for `CN(C)c1ccc(C(=O)NCC2(N(C)C)CCCCC2)cc1`: inactive: -5.73%; for `CN(C)C1CCCC1OC(=O)C(O)(c1ccccc1)c1ccccc1` (stereo unspecified): inactive: -2.16%; for `Cc1ccccc1C(=O)NCC1(N2CCCCC2)CCCCC1`: inactive: -5.12%.
The same measure for `O=C(NCC1(N2CCCCC2)CCCCC1)c1cc(F)c(F)cc1Cl`: inactive: 0.12%; for `C=CCN1CCN(CCOC(=O)C(O)(c2ccccc2)c2ccccc2)CC1`: inactive: -3.37%; for `O=C(NCC1(N2CCCCC2)CCCCC1)c1cccc(Br)c1`: inactive: 0.66%.
The same measure for `CCN1CCCC(OC(=O)C2(O)c3ccccc3C=Cc3ccccc32)C1` (stereo unspecified): inactive: 4.7%; for `Cc1cc(C(=O)NCC2(N3CCCCC3)CCCCC2)ccc1[N+](=O)[O-]`: inactive: -0.08%.
As for `COc1ccc(C(=O)NCC2(N(C)C)CCCCC2)cc1`, the inhibition was inactive: -3.31%.
The same measure for `O=C(NCC1(N2CCCCC2)CCCCC1)c1cc([N+](=O)[O-])ccc1Cl`: inactive: -0.28%; for `CN1[C@@H]2CC[C@H]1CC(OC(=O)C(O)(c1ccccc1)c1ccccc1)C2` (stereo partly specified): inactive: -1.88%; for `CC(C)N1C(=O)CC2(CCN(CCOC(=O)C(O)(c3ccccc3)c3ccccc3)CC2)C1=O`: inactive: 1.59%.
The result for `COc1cc(SC)ccc1C(=O)NCC1(N(C)C)CCCCC1` reads inactive: -2.07%; that for `CCN(CC)CC(C)C(C)OC(=O)C(O)(c1ccccc1)c1ccccc1` (stereo unspecified), inactive: -2.32%; that for `Cc1ccc(C(=O)NCC2(N3CCCCC3)CCCCC2)cc1`, inactive: 0.8%.

The inhibition is the change of the read-out against control, counted positive when it falls.
